Where a name gives a salt, the structure may show the parent alone.
Experiments:
[1] = target: T1, SGLT1 (Homo sapiens, UniProt P13866); test: SGLT1 inhibition assay for validation of screening hits and similar compounds (1‐NBD‐glucose uptake, CHO‐hSGLT1 cells); format: cell-based; parameters: activity: dose or concentration left out as unconfirmed
T1 sequence (P13866 1-664): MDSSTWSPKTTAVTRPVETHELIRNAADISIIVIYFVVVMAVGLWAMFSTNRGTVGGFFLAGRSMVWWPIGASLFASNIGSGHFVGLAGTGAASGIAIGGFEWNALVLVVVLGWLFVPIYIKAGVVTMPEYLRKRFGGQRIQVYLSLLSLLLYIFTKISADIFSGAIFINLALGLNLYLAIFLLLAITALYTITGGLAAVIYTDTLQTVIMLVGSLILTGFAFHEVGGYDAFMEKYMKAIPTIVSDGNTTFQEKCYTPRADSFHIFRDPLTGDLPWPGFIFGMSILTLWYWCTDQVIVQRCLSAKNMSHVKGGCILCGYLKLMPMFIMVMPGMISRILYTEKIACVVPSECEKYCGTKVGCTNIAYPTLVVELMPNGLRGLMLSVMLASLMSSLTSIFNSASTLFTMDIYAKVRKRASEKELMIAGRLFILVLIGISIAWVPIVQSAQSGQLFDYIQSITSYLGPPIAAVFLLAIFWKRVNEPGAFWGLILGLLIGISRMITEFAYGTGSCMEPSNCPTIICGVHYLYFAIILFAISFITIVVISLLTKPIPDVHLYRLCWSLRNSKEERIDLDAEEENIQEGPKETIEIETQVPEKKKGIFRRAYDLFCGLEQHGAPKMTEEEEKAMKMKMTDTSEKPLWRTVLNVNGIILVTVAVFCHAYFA

[2] = target: T2, hSGLT2 (Homo sapiens, UniProt P31639); test: SGLT2 inhibition assay for validation of screening hits and similar compounds (1‐NBD‐glucose uptake, CHO‐hSGLT2 cells)
T2 sequence (P31639 1-672): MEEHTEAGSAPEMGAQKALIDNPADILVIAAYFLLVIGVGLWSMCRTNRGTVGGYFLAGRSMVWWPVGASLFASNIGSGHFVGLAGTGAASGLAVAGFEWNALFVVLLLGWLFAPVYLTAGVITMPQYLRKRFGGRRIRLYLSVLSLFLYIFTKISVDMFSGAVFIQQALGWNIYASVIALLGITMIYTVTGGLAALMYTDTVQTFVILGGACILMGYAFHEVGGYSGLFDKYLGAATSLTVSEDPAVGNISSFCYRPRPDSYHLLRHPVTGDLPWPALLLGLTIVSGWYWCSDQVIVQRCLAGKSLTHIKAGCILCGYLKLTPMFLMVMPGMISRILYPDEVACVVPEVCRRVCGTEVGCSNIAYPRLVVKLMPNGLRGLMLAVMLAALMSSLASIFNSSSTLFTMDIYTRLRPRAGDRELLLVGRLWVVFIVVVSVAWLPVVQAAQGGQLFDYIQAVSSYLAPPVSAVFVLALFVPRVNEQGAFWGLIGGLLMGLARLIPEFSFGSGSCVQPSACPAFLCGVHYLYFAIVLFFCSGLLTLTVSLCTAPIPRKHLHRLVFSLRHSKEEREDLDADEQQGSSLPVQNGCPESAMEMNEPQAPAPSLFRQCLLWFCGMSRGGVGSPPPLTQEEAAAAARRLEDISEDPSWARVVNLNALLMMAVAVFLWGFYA

CN1[C@@H]2CC[C@H]1C[C@@H](OC(c1ccccc1)c1ccccc1)C2 [Benztropine mesylate]
activity ([1]; read-out: NORMALIZED SGLT1 ACTIVITY (%) Mean): 85%
SGLT2/SGLT1 ACTIVITY RATIO 5 uM Mean [2]: 0.9

CN[C@H]1CC[C@@H](c2ccc(Cl)c(Cl)c2)c2ccccc21 [Sertraline HCl]
SGLT2/SGLT1 ACTIVITY RATIO, first concentration [2]: 0.543
SGLT2/SGLT1 ACTIVITY RATIO, second concentration [2]: 0.9

CN1[C@@H]2CC[C@H]1C[C@@H](OC(c1ccccc1)c1ccccc1)C2 [benztropine]
SGLT1/2 inhibition stated in words [1]: novel SGLT1/2 inhibitors

Source: publication PMC6664820, “Novel natural and synthetic inhibitors of solute carriers SGLT1 and SGLT2” (Pharmacology Research & Perspectives, 2019)
